The source of these data is patent publication US20120122830A1, “PREGNENOLONE SULFATE FOR THE TREATMENT OF NEUROLOGIC DISORDERS” (King Faisal Specialist Hospital & Research Centre, priority 2008, published 2012).

The data set relates to B104 cells. In words: PREGS effect on B104 cell viability (dose-response). The class given is cell-based, Rat. Conditions: PREGS 0.25 to 40 μM, 24 h, compared to control cells. As to the method: To determine if PREGS was neurotoxic, a dose-response study was conducted in cultured B104 cells. B104 cells were treated with various concentrations of PREGS, ranging from 0.25 to 40 μM, for 24 h.
Rat B104 neuroblastoma is chosen as the cell culture model due to its neuronal phenotype when grown in serum free medium (Schubert et al. Nature 1974; 249: 224-27). B104 cells are routinely grown in flasks of 75 cm^2 with complete culture medium containing Dulbecco's Modified Eagle Medium (DMEM) supplemented with 2 mM L-glutamine, penicillin G (50 U/ml), streptomycin sulfate (50 μg/ml), 10% fetal calf serum, and 5% horse serum. They are sub-cultured every week and the culture medium is changed every three days. Cultures are maintained at 37° C. in a humidified incubator in 90% air and 10% CO2 atmosphere. For the experiments, the cells are plated at the required density, in serum complete medium for 24 H and then the medium is replaced with a serum free one containing or not the desired treatment.

“Also recorded” adds a separate entry of the source.

Consider pregnenolone sulfate [PREGS], for which the “neurotoxicity / cell viability” value was “not toxic and does not affect the viability; also recorded: not neurotoxic and does not affect the viability”.
